Values quoted from earlier work, collected in paper PMC7565988, “Insight into the Anticancer Activity of Copper(II) 5-Methylenetrimethylammonium-Thiosemicarbazonates and Their Interaction with Organic Cation Transporters” (Biomolecules, 2020).

Molecular target: T1, OCT2 (Homo sapiens, UniProt O15244)
T1 construct: expressed in transfected cells
T1 sequence (O15244 1-555): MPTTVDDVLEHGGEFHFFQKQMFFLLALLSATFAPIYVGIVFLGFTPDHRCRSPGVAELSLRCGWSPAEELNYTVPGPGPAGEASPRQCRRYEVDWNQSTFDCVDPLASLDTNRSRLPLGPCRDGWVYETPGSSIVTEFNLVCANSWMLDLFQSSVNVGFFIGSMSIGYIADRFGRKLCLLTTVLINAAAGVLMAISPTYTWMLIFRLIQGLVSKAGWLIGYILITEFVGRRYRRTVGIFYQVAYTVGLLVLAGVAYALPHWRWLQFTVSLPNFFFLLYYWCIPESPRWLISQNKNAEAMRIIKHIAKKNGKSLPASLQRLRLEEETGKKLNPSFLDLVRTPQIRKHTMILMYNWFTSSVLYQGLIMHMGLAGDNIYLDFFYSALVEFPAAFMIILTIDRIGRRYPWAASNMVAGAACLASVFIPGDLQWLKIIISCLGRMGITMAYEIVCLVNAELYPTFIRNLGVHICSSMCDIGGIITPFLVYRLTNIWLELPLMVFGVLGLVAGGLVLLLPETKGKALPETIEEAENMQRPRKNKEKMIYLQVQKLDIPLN
Parameters: method as in PMID 14576340
Details: reference inhibitor; cited from earlier work

In the case of COc1cc2nc(N3CCN(C(=O)c4ccco4)CC3)nc(N)c2cc1OC [Prazosin], the IC50 is given as over 100 µM.
